Experimental data from ChEMBL document CHEMBL1909609, “Synthesis of purine modified 2'-C-methyl nucleosides as potential anti-HCV agents” (Bioorg Med Chem Lett, 2011).

Biological target: T1, Adenosine deaminase (Homo sapiens, UniProt P00813)
T1 sequence (P00813 whole entry): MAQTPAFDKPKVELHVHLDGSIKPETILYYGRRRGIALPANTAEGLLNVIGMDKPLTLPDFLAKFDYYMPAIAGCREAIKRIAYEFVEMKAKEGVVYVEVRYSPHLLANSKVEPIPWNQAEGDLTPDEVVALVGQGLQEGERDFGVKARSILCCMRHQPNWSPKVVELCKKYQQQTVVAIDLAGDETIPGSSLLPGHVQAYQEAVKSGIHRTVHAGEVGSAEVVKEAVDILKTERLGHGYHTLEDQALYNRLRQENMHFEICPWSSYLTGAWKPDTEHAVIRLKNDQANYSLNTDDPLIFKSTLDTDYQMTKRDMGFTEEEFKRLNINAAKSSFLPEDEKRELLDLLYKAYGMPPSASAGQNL
Experiment: Inhibition of adenosine deaminase assessed as conversion of adenosine to inosine

SMILES: C[C@@]1(O)[C@H](O)[C@@H](CO)O[C@H]1n1cnc2c(N)nc(-n3ccnn3)nc21
- IC50: 3.7 µM
